Earlier results on one substance are cited in patent US20120277180A1, “Cofactors and Methods for Use for Individuals” (VITAPATH GENETICS, INC, priority 2009, published 2012).

For the series the following is noted: upper level of intake considered safe for adults; cited from earlier work.

Turning to Vitamin E, the “UL (Upper Limit)” value is reported as 1000 mg.
